Results as given in patent publication US20130252945A1, “AMORPHOUS BIOINORGANIC IONIC LIQUID COMPOSITIONS COMPRISING PHARMACEUTICALS” (priority 2012, published 2013).

Test: Dissolution in stirred cuvette of water monitored by UV-Vis absorption at 314 nm
Format: physicochemical
Conditions: 1 mM in stirred water at pH 6.5

**Q.** For `CNC(=C[N+](=O)[O-])NCCSCc1ccc(CN(C)C)o1.Cl` [ranitidine-HCl, Ranitidine hydrochloride, reference compound], which “stirring time until maximal absorption at 314 nm” value is on record?
**A.** Its value is 10 min.
